AlphaSeq binding of Ab-14 heavy chain variants to a spike HR2 peptide

Target peptide (SARS-CoV-2 spike, HR2 region): PDVDLGDISGINAS

Each scFv is VH, three GGGGS repeats, VL, as in the parent Ab-14, and differs from it in the CDRs of the heavy chain only.
VH: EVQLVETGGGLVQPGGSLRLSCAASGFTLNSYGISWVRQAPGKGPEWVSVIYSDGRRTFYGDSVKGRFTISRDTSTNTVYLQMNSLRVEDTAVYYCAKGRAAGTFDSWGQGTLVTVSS
VL: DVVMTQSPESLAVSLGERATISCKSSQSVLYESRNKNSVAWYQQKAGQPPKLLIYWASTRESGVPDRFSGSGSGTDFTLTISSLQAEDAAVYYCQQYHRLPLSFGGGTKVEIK

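The starting antibody came from a phage panning campaign against this peptide. The variants were designed computationally from a first round of random CDR variants and then made and measured. Several design methods are mixed in this list. In AlphaSeq, yeast of one mating type display the scFv and yeast of the other type display the target. The frequency of each diploid, read from paired DNA barcodes, reflects how well the two displayed proteins bind. Each replicate has its own calibration line, from reference interactions of the BCL2 family. Each pool was mated in six replicate cultures.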

The parent's heavy chain CDRs are GFTLNSYGIS, VIYSDGRRTFYGDSVK, GRAAGTFDS; each variant's own CDRs replace them letter for letter.
This list holds designs with more than six substitutions.
Kd is apparent (estimated from mating counts) and averaged on the log scale over replicates with a signal. Smaller is tighter.
Where no diploid with the target was found in any replicate, the entry reads "no signal": below detection, most likely a poor binder, though not proof of it.

* GFDLDEYGIS, VIYADGRRTFYADSVK, GEAAGTFDE -> 1.5 nM (6 of 6 replicates)
* GFDLNEYGIS, VIYADGRRTFYSDSVK, GEIAGTFDF -> 570 pM (6 of 6 replicates)
* GFDLDEYGIS, VIYADGMRTAYTQKVK, GRETDTNVV -> no signal (0 of 6 replicates)
* GFTLDEYGIS, VIYADGRRTFYSDSVK, GGNAGTFDV -> 1.0 nM (6 of 6 replicates)
* GFDIEEYGIS, VIYADGVRTMYADDVK, GNSKTYSLT -> no signal (0 of 6 replicates)
* GFNLDEYGIS, VIYADGKRTFYQDSVK, GEVAGTFDF -> 140 pM (6 of 6 replicates)
* GKSLDEYGIS, VIYADGTRAFYANSVK, GLISMVFGK -> no signal (0 of 6 replicates)
* GFDLEEYGIS, VIYADGFRTAYKNQVK, GSFMIDTVV -> no signal (0 of 6 replicates)
* GFDLDEYGIS, VIYADGQRTAYADSVK, GEQAGTFDV -> 720 pM (6 of 6 replicates)
* GQLLDDYGIS, VIYADGLRKAYVDEVK, GYVAGTFDM -> 2.3 nM (5 of 6 replicates)
* GFDLNEYGIS, VIYADGIRTFYTDSVK, GEVAGTFDV -> 680 pM (6 of 6 replicates)
* GFDLNEYGIS, VIYADGMRTSYADSVK, GNVAGTFDT -> 320 pM (6 of 6 replicates)
* GFTEVDYGIS, VINEDGRRTQYIDSIK, GRAAGTFDS -> no signal (0 of 6 replicates)
* GFDINEYGIS, VIYADGMRTAYVQQVK, GQNLGDVEV -> 230 nM (1 of 6 replicates)
* GFDLNEYGIS, VIYADGVRTAYSDSVK, GEVAGTFDT -> 410 pM (6 of 6 replicates)
* GFQLDEYGIS, VIYADGMRKAYAQNVK, GNLLVIQEG -> no signal (0 of 6 replicates)
* GFSLDDYGIS, VIYADGKRTMYAESVK, GQIAGSLSN -> 1.3 nM (6 of 6 replicates)
* GFNLQEYGIS, VIYADGSRVVYQEKVK, GFSAGNFDT -> no signal (0 of 6 replicates)
* GFDLNEYGIS, VIYADGMRTAYADNVK, GNVAGTFDV -> 240 pM (6 of 6 replicates)
* GFSLDEYGIS, VIYADGRRTFYQDSVK, GEVAGTFDS -> 310 pM (6 of 6 replicates)
* GFDLDEYGIS, VIYADGMRTFYADSVK, GNVAGTFDV -> 130 pM (6 of 6 replicates)
* GFNIDEYGIS, VIYADGRRTVYSDNVK, GNYMASGKI -> no signal (0 of 6 replicates)
* GFDLNEYGIS, VIYADGMRTAYSDKVK, GNVAGTFDL -> 370 pM (6 of 6 replicates)
* GFDLNEYGIS, VIYADGQRTAYADSVK, GEVAGTFDT -> 330 pM (6 of 6 replicates)
* GFDLNEYGIS, VIYADGKRTFYSDDVK, GNAAGTFDS -> 450 pM (6 of 6 replicates)
* GFDLNEYGIS, VIYADGSRSFYADSVK, GQLAGTFDM -> 570 pM (6 of 6 replicates)
* GFDLNEYGIS, VIYADGMRTAYSDDVK, GGNAGTFDI -> 11 nM (6 of 6 replicates)
* GEDLLEYGIS, VIYADGKRVAYTNAVK, GNEAGVFTL -> no signal (0 of 6 replicates)
* GFDLDEYGIS, VIYADGRRTAYSDSVK, GNVAGTFDV -> 1.6 nM (6 of 6 replicates)
* GFDLNEYGIS, VIYADGRRTAYADSVK, GENAGTFDT -> 460 pM (6 of 6 replicates)
* GFDLNEYGIS, VIYADGMRTAYIDSVK, GEVAGTFDL -> 480 pM (6 of 6 replicates)
* GFDLNEYGIS, VIYADGRRTAYIDSVK, GEIAGTFDS -> 850 pM (6 of 6 replicates)
* GFDLNEYGIS, VIYADGQRTFYADSVK, GNQAGTFDQ -> 630 pM (6 of 6 replicates)
* GFDLQEYGIS, VIFADGLRSAYSDKVK, GQINGYFSV -> no signal (0 of 6 replicates)
* GVNLDEYGIS, VIYADGKRVHYTDKVK, GTFGDFGIV -> no signal (0 of 6 replicates)
* GFDLDEYGIS, VIYADGMRSAIKENVK, GEISGTLNA -> no signal (0 of 6 replicates)
* GADLNEYGIS, VIYADGDRKAYQDDFK, GDVGGDFDE -> no signal (0 of 6 replicates)
* GFDLNEYGIS, VIYADGRRTAYVDDVK, GNVAGTFDV -> 320 pM (6 of 6 replicates)
* GFTLDEYGIS, VIYADGRRTFYADNVK, GNVAGTFDQ -> 360 pM (6 of 6 replicates)
* GFDLNEYGIS, VIYADGMRTAYADSVK, GDVAGTFDV -> 220 pM (6 of 6 replicates)

Values of this round are not directly comparable with the first-round values of the same sequences.
As a blank, each scFv also met three strains without target: over all heavy chain designs, 1% of these pairings were detected, typically at 120 nM and seldom below 7.0 nM.
The authors averaged sequences with at least three values out of six and counted those with two or fewer as poor binders.

Reference: Li et al. 2023, doi:10.1038/s41467-023-39022-2. File: FLAb, binding data.